Experimental data from PMC4440444 (Theranostics, 2015).

System: glioma
Settings: patient No. 7, WHO grade IV; brain PET/CT

^18F-FDG
T/NTmax (maximum target to non-target ratio): 1.36
